Laboratory results: paper PMC4630399, “Charge-Based Inhibitors of Amylin Fibrillization and Toxicity” (Journal of Diabetes Research, 2015)
Several values for one entry are separate records, joined by “and”; a condition that tells them apart may be missing. Identical values can stand only once.

What was measured:
[1] = ThT assay of fibrillization kinetics, peptides alone; assay type: physicochemical; details: 20 μM peptide, 150 mM NaCl
Protocol: The time course of fibrillization in solution was monitored using 100–200 μL amylin samples, contained in white polystyrene clear bottom 96-well plates (Corning Inc., Corning, NY). Plates were covered with a clear polyester sealing tape (Fisher Scientific, Agawam, MA) to prevent evaporation. Stock solutions of 1.1 mM WT-amylin and inhibitor peptides were prepared in 100% DMSO, which dissolves and disaggregates amylin fibrils, and were stored at −80°C when not in use. Starting from the 1.1 mM stock solutions in 100% DMSO, samples for fibrillization reactions were prepared to contain 20 μM amylin and 10 μM ultrapure ThT, in 20 mM sodium phosphate buffer, pH 7.4, and a final DMSO concentration of 2% (v/v). For experiments using larger 400 μM concentrations of Arg-2 and Mem-T, the solutions were prepared by diluting 100% DMSO stock solutions of 20 mM peptide to a final DMSO concentration of 2% (v/v). Amylin was the last component added to the samples for the kinetic reactions, in order to reduce the dead time for the experiments. The plates were incubated at 25°C without agitation. Fluorescence intensity was recorded at 2 min intervals with excitation at 440 nm and emission at 490 nm on a Fluoroskan Ascent 2.5 fluorescence plate reader. Fibrillization reactions for the peptides alone were performed in triplicate and for analog-peptide inhibition of WT-amylin in duplicate, to estimate experimental uncertainties in kinetic parameters.

[2] = tested on: MIN6 mouse model of pancreatic β-cells; details: 24 h, 160 μM
Protocol: The stock solutions were diluted with FBS-free DMEM and sonicated continuously for 5 min at 75% amplitude before use. FBS was subsequently added to a concentration of 15% (v/v), giving final amylin concentrations of 40, 80, and 160 μM. The final DMSO concentration for all cytotoxicity experiments was 1% (v/v).
Cytotoxicity was measured using the mouse insulinoma 6 (MIN6) cell line model of β-pancreatic cells, which were a gift from Dr. Anil Rustgi (University of Pennsylvania). Cells were seeded at a density of 20,000 per 100 μL in black clear-bottom 96-well plates. The cells were grown in DMEM with 15% FBS, 25 mM glucose, 2 mM L-glutamine, […] sodium pyruvate, 55 μM β-mercaptoethanol, 1000 units/mL penicillin, and 100 μg/mL streptomycin, for 20 h at 37°C in a humidified incubator with 5% CO2. […] The cells were incubated for another 24 h followed by the addition of 10% (v/v) of the redox indicator dye Alamar Blue at the concentration supplied by the manufacturer (Invitrogen). Fluorescence, due to the reduction of Alamar Blue by viable cells, was measured after 6 h, using excitation and emission wavelengths of 544 and 590 nm, respectively. Cell viability was calculated from the ratio of Alamar Blue fluorescence in treated to untreated cells. Uncertainties were calculated as the SEMs of triplicate measurements.

[3] = set-up: method as in 2 sources, ref 21 = [21]; PMID 23016872; doi:10.1021/bi300574r; 21 Marek P. J. Patsalo V. Green D. F. Raleigh D. P. Ionic strength effects on amyloid formation by amylin are a complicated interplay among debye screening, ion selectivity, and hofmeister effects Bio ||| ref 7 = [7]; PMID 22206987; doi:10.1016/j.jmb.2011.12.032; 7 Cao P. Tu L.-H. Abedini A. Sensitivity of amyloid formation by human islet amyloid polypeptide to mutations at residue 20 Journal of Molecular Biology 2012 421 2-3 282 295 10.1016/j.jmb.2011.12.032; details: absence of inhibitors; cited from earlier work
From the text: In type 2 diabetes, the positively charged 37-residue hormone amylin misfolds into cationic fibrils which have been implicated in the destruction of the pancreatic β-cells that make insulin and amylin, thus contributing to pathology. Amylin is a particularly favorable system for investigating the roles of charges in fibrillization, since the core of the intermolecular β-sheet fibril structure has only one pH-titratable group, His18 [9].

[4] = TEM of aggregates formed by peptides alone; assay type: physicochemical; details: 80 μM peptide, 2 days, 20 mM phosphate pH 7.4, 37°C, no agitation
Protocol: Samples containing 80 μM concentrations of WT-amylin and the three analogs were incubated without agitation at a temperature of 37°C in 20 mM phosphate buffer (pH 7.4). For the inhibition reactions, samples contained WT-amylin at an 80 μM concentration, together with 160 μM of Arg-1, Arg-2, or Mem-T analogs. Aliquots from the reactions were removed after 2 days for TEM imaging. The aliquots were blotted onto carbon-coated 400-mesh Maxtaform copper grids (Ted Pella Inc. Redding, CA) for 1–3 min, followed by negative staining with 1% uranyl acetate. TEM images were recorded on an FEI Tecnai G^2 Spirit BioTwin transmission electron microscope equipped with an AMT XR-40 camera.

Q: With CC[C@H](C)[C@H](NC(=O)[C@H](C)NC(=O)CNC(=O)[C@H](Cc1ccccc1)NC(=O)[C@H](CC(N)=O)NC(=O)[C@H](CC(N)=O)NC(=O)[C@H](CO)NC(=O)[C@H](CO)NC(=O)[C@H](Cc1c[nH]cn1)NC(=O)[C@@H](NC(=O)[C@H](CC(C)C)NC(=O)[C@H](Cc1ccccc1)NC(=O)[C@H](CC(N)=O)NC(=O)[C@H](C)NC(=O)[C@H](CC(C)C)NC(=O)[C@H](CCCNC(=N)N)NC(=O)[C@H](CCC(N)=O)NC(=O)[C@@H](NC(=O)[C@H](C)NC(=O)[C@@H]1CSSC[C@H](NC(=O)[C@@H](N)CCCCN)C(=O)N[C@@H](CC(N)=O)C(=O)N[C@@H]([C@@H](C)O)C(=O)N[C@@H](C)C(=O)N[C@@H]([C@@H](C)O)C(=O)N1)[C@@H](C)O)C(C)C)C(=O)N[C@@H](CC(C)C)C(=O)N[C@@H](CO)C(=O)N[C@@H](CO)C(=O)N[C@H](C(=O)N[C@@H](CC(N)=O)C(=O)N[C@H](C(=O)NCC(=O)N[C@@H](CO)C(=O)N[C@@H](CC(N)=O)C(=O)N[C@H](C(=O)N[C@@H](Cc1ccc(O)cc1)C(N)=O)[C@@H](C)O)C(C)C)[C@@H](C)O [WT-amylin, reference compound] as the molecule, how does the “fibrillization detected (ThT)” value ([1]; pH 7.4, 25°C) read?
A: detect fibrillization

Q: What about the fibrillization lag time ([1]; 20 mM sodium phosphate pH 7.4, 10 μM ThT, 2% DMSO, 25°C, no agitation, fluorescence ex 440/em 490 nm, triplicate) of the same molecule?
A: 120 min

Q: What about the fibril elongation rate ([1]; 20 mM sodium phosphate pH 7.4, 10 μM ThT, 2% DMSO, 25°C, no agitation, triplicate) of the same molecule?
A: 0.010 min⁻¹ and 0.0100 ± 0.0001 min⁻¹

Q: And the cell viability [2]?
A: about 45%

Q: And the “effect of ionic strength on fibrillization” value [3]?
A: enhanced with increasing ionic strength

Q: And the “aggregate morphology by TEM” value [4]?
A: formed large amounts of fibrils
